For assay [1], the target named is Mitogen-activated protein kinase 8 (Homo sapiens, UniProt P45983). The assay can be described thus: Inhibition of JNK1.
Assay [2] has as its target Mitogen-activated protein kinase 10 (Homo sapiens, UniProt P53779). Put plainly: Inhibition of JNK3.

The chains behind the UniProt entries cited, without tags or fusion partners. Where a name states a change or a piece, a line headed by the entry shows the natural chain unless it says otherwise.
UniProt P45983: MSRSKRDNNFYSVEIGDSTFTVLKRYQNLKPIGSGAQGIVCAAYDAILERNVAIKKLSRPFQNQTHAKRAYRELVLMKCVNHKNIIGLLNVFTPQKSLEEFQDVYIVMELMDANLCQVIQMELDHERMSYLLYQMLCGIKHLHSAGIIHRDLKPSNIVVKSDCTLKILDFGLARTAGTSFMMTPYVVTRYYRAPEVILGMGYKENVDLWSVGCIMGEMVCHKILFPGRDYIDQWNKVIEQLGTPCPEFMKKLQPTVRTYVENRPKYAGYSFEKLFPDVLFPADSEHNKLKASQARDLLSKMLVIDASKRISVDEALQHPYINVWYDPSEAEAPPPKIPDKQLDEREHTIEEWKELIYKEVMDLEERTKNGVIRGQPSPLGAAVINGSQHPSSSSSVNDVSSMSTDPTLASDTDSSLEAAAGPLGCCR
UniProt P53779: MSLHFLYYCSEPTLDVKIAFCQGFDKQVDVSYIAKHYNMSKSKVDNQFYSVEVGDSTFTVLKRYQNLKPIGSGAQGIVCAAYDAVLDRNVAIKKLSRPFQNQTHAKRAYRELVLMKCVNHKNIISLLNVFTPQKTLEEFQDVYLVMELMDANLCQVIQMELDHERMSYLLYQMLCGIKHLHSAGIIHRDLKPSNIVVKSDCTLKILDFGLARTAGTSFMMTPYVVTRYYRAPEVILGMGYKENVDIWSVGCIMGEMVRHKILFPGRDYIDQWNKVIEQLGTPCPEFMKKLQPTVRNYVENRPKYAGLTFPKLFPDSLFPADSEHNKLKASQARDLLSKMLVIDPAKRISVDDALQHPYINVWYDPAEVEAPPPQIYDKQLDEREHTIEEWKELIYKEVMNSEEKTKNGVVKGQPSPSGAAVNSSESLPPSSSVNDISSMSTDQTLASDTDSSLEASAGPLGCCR

A value given as a limit tells only on which side of the number the result lay.

By IC50 is commonly meant the point on the concentration scale where inhibition reaches its midpoint. Turning to `O=C(NC1CC1)c1cccc(-c2ccc3c(N4CCOCC4)nncc3c2)c1`, the IC50 in assay [1] and in assay [2] was over 10 µM in each case.

The record behind these values is ChEMBL document CHEMBL1140163 (J Med Chem, 2008).
